This is an account of results in PubChem BioAssay AID485317 (Broad Institute, 2010).

Protein sequences, listed by entry. Tags and fused reporters are not part of them.
UniProt P55789, whole entry: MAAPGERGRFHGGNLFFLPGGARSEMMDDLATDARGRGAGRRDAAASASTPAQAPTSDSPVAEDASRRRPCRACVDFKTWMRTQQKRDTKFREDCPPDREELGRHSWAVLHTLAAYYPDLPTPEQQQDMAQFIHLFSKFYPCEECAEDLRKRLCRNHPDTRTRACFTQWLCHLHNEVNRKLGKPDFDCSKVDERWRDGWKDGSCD

Each structure is given as a SMILES string. This is a selection; strong and weak results do not stand in their true shares. The source made the active and inactive calls.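 The calls were made as follows: active = mean replicate inhibition above about 79%, with every replicate also reaching it (limit read from the data); inconclusive = only one of the two criteria met; inactive = mean below limit and not every replicate reaching it.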

The test has as its target FAD-linked sulfhydryl oxidase ALR (Homo sapiens) (UniProt P55789). Briefly: inhibitors of human ALR sulfhydryl oxidase, primary screen, biochemical, H2O2 detection, HRP-luminol luminescence, single point (AID 485317). The settings on record: purified ALR, DTT oxidation, active compounds read high, concentration not given here.
What is called inhibition is the relative decrease from the control value, in per cent. For `Cc1cc(SC(NC(=O)c2ccccc2)C(Cl)(Cl)Cl)nc(C(C)C)n1` (configuration not stated), the inhibition was inactive: 2.82%. For `O=P(Nc1ccccn1)(c1cccc2ccccc12)c1cccc2ccccc12` the value was inactive: 4.75%; for `Cc1cc(SC(NC=O)C(Cl)(Cl)Cl)ncn1` (configuration not stated), inactive: -6.09%. The figure for `COc1ccccc1OP(C)(=O)Nc1ccccc1` (configuration not stated) is inactive: -11.1%; for `CP(=O)(Nc1ccccc1Br)Oc1ccccc1` (configuration not stated) it is inactive: 0.113%. The figure for `O=[N+]([O-])c1ccc(Nc2ccc(Oc3ccc([N+](=O)[O-])cc3[N+](=O)[O-])cc2)c([N+](=O)[O-])c1` is inactive: -1.22%; for `CP(=S)(Nn1cnnc1)Oc1ccccc1` (configuration not stated) it is inactive: 0.38%. For `CCOC(=O)Nc1cccc([As](=O)(O)O)c1`, the inhibition is inactive: 0.821%.

On to `CCc1ccc(OP(C)(=O)N2CCN(c3ccc([N+](=O)[O-])cc3)CC2)cc1` (configuration not stated), for which the inhibition was inactive: -4.84%. For `O=C(COc1ccccc1)OC1CN2CCC1CC2` (configuration not stated) the value was inactive: -10.8%. The figure for `CP(=O)(NC(=O)Nc1ccccc1)Oc1ccccc1` (configuration not stated) is inactive: 2.75%; for `Cc1cc(C)cc(OP(C)(=O)Nc2ccc(SC(F)(F)F)cc2)c1` (configuration not stated) it is inactive: -2.09%; for `O=C(Nc1ccncc1[N+](=O)[O-])c1ccc([N+](=O)[O-])cc1[N+](=O)[O-]` it is inactive: -34.3%. On to `Cc1cccc(C)c1OP(C)(=O)Nc1ccc(SC(F)(F)F)cc1` (configuration not stated), for which the inhibition is inactive: -2.12%. Consider `CP(=O)(Nc1ccc(SC(F)(F)F)cc1)Oc1ccc(Cl)cc1` (configuration not stated), for which the inhibition was inactive: -4.21%. For `COP1(=S)c2c(C)nn(CCC#N)c2N=C(c2ccc(F)cc2)N1C` (configuration not stated), the inhibition was inactive: -5.51%. `CCC(C)N(CC(C)C)C(=S)SC(NC(C)=O)C(Cl)(Cl)Cl` (configuration not stated): the inhibition is inactive: -4.52%. The figure for `CP(=O)(Nc1ccccn1)Oc1ccc(Cl)cc1` (configuration not stated) is inactive: -0.0811%; for `CCOP(C)(=S)SCC(=O)NC(C)C(=O)O` (configuration not stated) it is inactive: -8.83%.

`O=C(OC1CN2CCC1CC2)c1cccc([N+](=O)[O-])c1` (configuration not stated): the inhibition is inactive: -8.67%. Take `CCOC(=O)c1ccc(NP(C)(=O)Oc2ccc(OC)cc2)cc1` (configuration not stated): the inhibition is inactive: 2.04%.

As for `CCOC(=O)c1ccc(NC(=O)C(C)(CCl)SC)cc1` (configuration not stated), the inhibition was inactive: -7.37%. For `O=[N+]([O-])c1cc([N+](=O)[O-])c(O)c([N+](=O)[O-])c1.c1ccc(Oc2ccncc2)cc1` the value was inactive: -3.13%. The figure for `COc1ccc2nc(NP(=O)(c3ccccc3)c3ccccc3)sc2c1` is inactive: 1.93%. As to `COc1cc(I)ccc1[As](=O)(O)O`, the inhibition was inactive: -4.42%. The figure for `Cc1c2c(nc3ccccc13)SC(C(Cl)Cl)C2` (configuration not stated) is inactive: -0.4%; for `O=C(OC1CN2CCC1CC2)C12CC3CC(CC(C3)C1)C2` (configuration not stated) it is inactive: 11.9%; for `Cc1cc(=O)[nH]c(N[N+](=O)[O-])n1` it is inactive: -0.013%. On to `CCN(CC)CCCOC(=O)C(O)(c1ccccc1)c1ccccc1`, for which the inhibition was inactive: -2.29%. For `COc1ccc(N/C(=N/P(=O)(N2CCOCC2)N2CCOCC2)N2CCOCC2)cc1` the value was inactive: -35.3%. For `CC(C)(C)c1ccc(OP(C)(=O)Nc2ccc(SC(F)(F)F)cc2)cc1` (configuration not stated) the value was inactive: -3.14%; for `Cc1ccc(OP(=O)(Nc2ccc([N+](=O)[O-])cn2)Oc2ccc(C)cc2)cc1`, inactive: -11.5%. On to `Cc1ccc2nc3c(c(C)c2c1)CC(C(Cl)Cl)S3` (configuration not stated), for which the inhibition is inactive: -9.05%. For `O=[N+]([O-])c1ccc2c(c1)C=Nc1ccccc1O2` the value was inactive: 21.5%; for `O=[N+]([O-])c1cc([N+](=O)[O-])c(Nc2cccnc2)c([N+](=O)[O-])c1`, inactive: -29.3%; for `O=[As](O)(c1ccc(O)cc1)c1ccccc1O`, inactive: 3.49%. For `C[As](=O)(O)c1cccc(C(=O)O)c1`, the inhibition was inactive: -1.19%. The figure for `COc1cc(C(=O)NCC2(N3CCOCC3)CCCCC2)ccc1OCC(C)C` is inactive: -19.8%; for `COc1ccccc1OP(C)(=O)Nc1cc(Cl)ccc1C` (configuration not stated) it is inactive: -0.442%; for `CC(C)NC(=O)NP(=O)(Oc1ccccc1)Oc1ccccc1` it is inactive: 7.47%. In the case of `O=[N+]([O-])c1cc([N+](=O)[O-])c(-c2ccn[nH]2)s1`, the inhibition was inactive: -25.9%.

Regarding `COc1ccc(OP(C)(=O)Nc2cccc(F)c2)cc1` (configuration not stated), the inhibition was inactive: -1.8%. As to `CCOC(=O)c1ccc(NP(C)(=O)Oc2ccccc2)cc1` (configuration not stated), the inhibition was inactive: -1.45%. For `ClCCSc1nnc(-c2cccnc2)o1` the value was inactive: -10.6%; for `COc1ccccc1OP(C)(=O)Nc1ccc(C)cc1` (configuration not stated), inactive: -1.85%; for `Cc1ccc(NP(C)(=O)Oc2ccccc2)c(C)c1` (configuration not stated), inactive: 1.91%. For `Nc1ccccc1[As](=O)(O)c1ccccc1` the value was inactive: -5.27%; for `O=C(O)COc1ccc([As](=O)(O)O)cc1[N+](=O)[O-]`, inactive: -7.1%. The figure for `CCOP1(=S)c2c(C)nn(CCC#N)c2N=C(c2ccccc2F)N1C` (configuration not stated) is inactive: -8%; for `O=C(O)c1cccc(Nc2c([N+](=O)[O-])cc([N+](=O)[O-])cc2[N+](=O)[O-])c1` it is inactive: -28%. For the molecule `O=P(Nc1nccs1)(c1ccccc1)c1nc2ccccc2s1` (configuration not stated), the inhibition was inactive: 2.53%.

Turning to `O=P(Nc1nccs1)(Oc1ccccc1)Oc1ccccc1`, the inhibition was inactive: 1.51%. Turning to `N#CCCN(C(=O)COC(=O)C(O)(c1ccccc1)c1ccccc1)c1ccc(F)cc1`, the inhibition was inactive: -2.95%. For `CCOP1(=S)c2c(C)nn(CCC#N)c2N=C(c2ccc(F)cc2)N1C` (configuration not stated) the value was inactive: -1.22%; for `CN(C(=O)Cc1ccccc1)[C@@H]1CC[C@]2(CCCO2)C[C@H]1N1CCCC1`, inactive: 1.31%. With `CN(C)C(=O)c1cc([N+](=O)[O-])cc2c1-c1c(cc([N+](=O)[O-])cc1[N+](=O)[O-])C2=O`, the inhibition is inactive: -17.2%. The figure for `O=[N+]([O-])c1ccc2c(c1)nnn2O` is inactive: -7.02%; for `CN(C(=O)Cc1ccc(Cl)c(Cl)c1)[C@H]1CC[C@@]2(CCCO2)C[C@@H]1N1CCCC1` it is inactive: -10.6%; for `NC(=O)Nc1ccc([As](=O)(O)O)cc1` it is inactive: -1.94%. For `O=[As](O)(c1cccc(O)c1)c1cccc(O)c1` the value was inactive: -6.08%; for `Cc1cccc(OCC(=O)OC2CN3CCC2CC3)c1` (configuration not stated), inactive: -10.9%. For `Cc1cc(C)cc(OP(C)(=O)Nc2ccc(C)cc2C)c1` (configuration not stated) the value was inactive: -2.64%.
